Assay results published in PubChem BioAssay AID487 (Columbia University Molecular Screening Center, 2006).
The list shows a part of the results, in another mix than the full data. Some tests of the compounds listed are not included; inactive here does not mean inactive elsewhere. Active and inactive are the calls of the source.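 Rule for the calls: active = visually confirmed hit in the image check and inhibition above 20%; inconclusive = visually confirmed hit but inhibition not above 20%; inactive = no visual hit in the image check.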

Assay: endothelial E-selectin expression blockers – imaging, HUVEC, immunofluorescence, MLSMR starter and 10KST1 sets, primary screen (AID 487);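 note: signal is fraction of cell area covered by stained E-selectin grains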
Conditions: HUVEC TNFalpha-induced E-selectin immunofluorescence imaging; at 2 µM; hits give high values

Compound	inhibition
O=C(OC1CN2CCC1CC2)C(CO)(c1ccccc1)c1ccccc1 (stereo unspecified)	inactive: -14.3%
